Measured values published in US7632933B2, “Corticotropin releasing factor 2 receptor agonists” (priority 2002, dated 2009).

Experiments:
CRF1R = target: T1, CRF1R (Homo sapiens, UniProt P34998); assay: CRF1R agonist activity (EC50 and Emax), called comparative CRF binding; type: cell-based; settings: CRF1R; for EC50: CRF1R EC50 (nM)
T1 sequence (P34998 24-415): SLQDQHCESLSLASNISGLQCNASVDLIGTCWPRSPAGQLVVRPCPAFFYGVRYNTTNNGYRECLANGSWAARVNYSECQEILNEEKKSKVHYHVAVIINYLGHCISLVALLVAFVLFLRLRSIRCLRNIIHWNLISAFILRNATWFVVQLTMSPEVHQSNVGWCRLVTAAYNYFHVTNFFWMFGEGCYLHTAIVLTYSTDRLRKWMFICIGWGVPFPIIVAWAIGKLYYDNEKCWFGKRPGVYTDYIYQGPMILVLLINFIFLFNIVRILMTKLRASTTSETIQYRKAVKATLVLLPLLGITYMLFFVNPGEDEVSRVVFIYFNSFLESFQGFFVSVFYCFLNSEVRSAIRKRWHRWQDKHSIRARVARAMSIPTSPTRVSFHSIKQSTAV
Text: (§1) The pharmacological activity and selectivity of the peptides of present invention can be determined using published test procedures. See, e.g, U.S. patent application Ser. No. 09/799,978. Because CRF2R and CRF1R are homologous proteins, it is expected that a certain proportion of agonists for CRF2R will also function as agonists of CRF1R. As discussed above, activation of CRF1R induces activation of the HPA axis since increased corticosteroid production leads to skeletal muscle atrophy. In most cases in which an increase in muscle mass or function is desired, it is not desirable to activate the HPA axis.
(§2) Because it is desirable to discriminate binding between CRF2R, as compared with CRF1R, the assays described above may be conducted using a cell, or membrane from a cell, which expresses only CRF2R or the assays can be conducted with a recombinant source of CRF2R. Cells expressing both forms of CRFR may be modified using homologous recombination to inactivate or otherwise disable the CRF1R gene. Alternatively, if the source of CRFR contains more than one CRFR type, the background signal produced by the receptor which is not of interest must be subtracted from the signal obtained in the assay. […] Known antagonists of CRFRs include, but are not limited to, antalarmin (CRF1R selective), antisauvagine-30 (CRF2R selective) and astressin (nonselective for CRF1R/CRF2R).
(§3) Cell-based assays include the steps of contacting cells which express CRF1R or CRF2R with a peptide of the present invention or control and measuring activation of the CRFR by measuring the expression or activity of components of the CRFR signal transduction pathways.
(§4) For example, after contact with a peptide of the present invention, lysates of the cells can be prepared and assayed for induction of cAMP. cAMP is induced in response to Gαs activation. Because Gαs is activated by receptors other than CRFR and because a test peptide may be exerting its effect through CRFRs or by another mechanism, two control comparisons are relevant for determining whether the peptide increases levels of cAMP via activation of a CRFR. One control compares the cAMP level of cells contacted with the peptide and the cAMP level of cells contacted with a control compound (i.e., the vehicle in which the peptide is dissolved).
(§5) In one example, cAMP induction is measured with the use of DNA constructs containing the cAMP responsive element linked to any of a variety of reporter genes can be introduced into cells expressing CRFRs. Such reporter genes include, but are not limited to, chloramphenicol acetyltransferase (CAT), luciferase, glucuronide synthetase, growth hormone, fluorescent proteins (e.g., Green Fluorescent Protein), or alkaline phosphatase. Following exposure of the cells to the peptide, the level of reporter gene expression can be quantitated to determine the peptide's ability to increase cAMP levels and thus determine the peptide's ability to activate the CRFR.
(§6) In addition to using cells expressing full length CRFRs, cells can be engineered which express CRFRs containing the ligand binding domain of the receptor coupled to, or physically modified to contain, reporter elements or to interact with signaling proteins. For example, a wild type CRFR or CRFR fragment can be fused to a G-protein resulting in activation of the fused G-protein upon agonist binding to the CRFR portion of the fusion protein. […] In addition, alternative pathways for induction of the CRE reporter could be eliminated to reduce basal levels.

CRF2R = target: T2, CRF2R (Homo sapiens, UniProt Q13324); assay: CRF2R agonist activity (EC50 and Emax), called comparative CRF binding; type: cell-based; settings: CRF2R; for EC50: CRF2R EC50 (nM)
T2 sequence (Q13324 1-411): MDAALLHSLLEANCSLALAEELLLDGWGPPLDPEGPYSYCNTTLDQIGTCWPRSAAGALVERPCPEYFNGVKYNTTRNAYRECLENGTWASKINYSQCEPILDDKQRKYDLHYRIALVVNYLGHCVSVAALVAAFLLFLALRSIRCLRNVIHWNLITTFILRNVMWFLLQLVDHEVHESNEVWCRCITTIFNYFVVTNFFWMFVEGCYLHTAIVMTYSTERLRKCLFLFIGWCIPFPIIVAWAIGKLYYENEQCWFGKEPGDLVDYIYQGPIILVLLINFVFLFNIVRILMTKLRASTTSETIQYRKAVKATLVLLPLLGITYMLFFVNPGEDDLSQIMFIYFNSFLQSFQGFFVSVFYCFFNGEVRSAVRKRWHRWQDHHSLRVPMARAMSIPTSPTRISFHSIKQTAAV
Text: as §1, §2, §3, §4, §5, §6

Structure (SMILES): CC[C@H](C)[C@H](NC(=O)[C@@H](NC(=O)[C@H](CC(=O)O)NC(=O)[C@H](CC(C)C)NC(=O)[C@H](CC(C)C)NC(=O)[C@H](CC(C)C)NC(=O)[C@H](CCCNC(=N)N)NC(=O)[C@H](CC(N)=O)NC(=O)[C@H](CC(N)=O)NC(=O)[C@H](C)NC(=O)[C@H](C)NC(=O)[C@H](CCC(N)=O)NC(=O)[C@H](CCC(N)=O)NC(=O)[C@H](CCCCN)NC(=O)[C@H](CCC(=O)O)NC(=O)[C@H](CCCCN)NC(=O)[C@H](CCC(=O)O)NC(=O)[C@H](CCC(N)=O)NC(=O)[C@H](CCCCN)NC(=O)[C@H](CCC(=O)O)NC(=O)[C@@H](NC(=O)[C@H](CCC(=O)O)NC(=O)[C@@H](NC(=O)[C@H](CCSC)NC(=O)[C@H](CCCCN)NC(=O)[C@H](CCCNC(=N)N)NC(=O)[C@H](CC(C)C)NC(=O)[C@H](CC(C)C)NC(=O)[C@H](C)NC(=O)[C@@H](NC(=O)[C@@H]1CCCN1C(=O)[C@H](CC(C)C)NC(=O)[C@H](CC(=O)O)NC(=O)[C@@H](NC(=O)[C@H](CO)NC(=O)[C@@H](NC(=O)[C@@H]1CCCN1C(=O)[C@@H]1CCCN1C(=O)CNC(=O)[C@@H]1CCC(=O)N1)[C@@H](C)CC)[C@@H](C)CC)[C@@H](C)CC)[C@@H](C)CC)[C@@H](C)CC)[C@@H](C)O)C(N)=O [compound 306]
- EC50 (CRF1R): 608 nM
- CRF1R (Emax %) (CRF1R): (97.65) %
- EC50 (CRF2R): 27.6 nM
- CRF2R (Emax %) (CRF2R): (100.00) %

Structure (SMILES): CC[C@H](C)[C@H](NC(=O)[C@@H](NC(=O)[C@H](C)NC(=O)[C@H](CC(C)C)NC(=O)[C@H](CC(C)C)NC(=O)[C@H](CC(C)C)NC(=O)[C@H](C)NC(=O)[C@H](CC(N)=O)NC(=O)[C@H](CC(N)=O)NC(=O)[C@H](C)NC(=O)[C@H](C)NC(=O)[C@H](CCC(N)=O)NC(=O)[C@H](CCC(N)=O)NC(=O)[C@H](CCCCN)NC(=O)[C@H](CCC(=O)O)NC(=O)[C@H](CCCCN)NC(=O)[C@H](CCC(=O)O)NC(=O)[C@H](CCC(N)=O)NC(=O)[C@H](CCCCN)NC(=O)[C@H](CCC(=O)O)NC(=O)[C@@H](NC(=O)[C@H](CCC(=O)O)NC(=O)[C@@H](NC(=O)[C@H](CC(C)C)NC(=O)[C@H](CCCCN)NC(=O)[C@H](CCCNC(=N)N)NC(=O)[C@H](CC(C)C)NC(=O)[C@H](CC(C)C)NC(=O)[C@H](CCC(N)=O)NC(=O)[C@H](Cc1ccccc1)NC(=O)[C@@H]1CCCN1C(=O)[C@H](CC(C)C)NC(=O)[C@H](CC(=O)O)NC(=O)[C@@H](NC(=O)[C@H](CO)NC(=O)[C@@H](NC(=O)[C@@H]1CCCN1C(=O)[C@@H]1CCCN1C(=O)CNC(=O)[C@@H]1CCC(=O)N1)[C@@H](C)CC)[C@@H](C)CC)[C@@H](C)CC)[C@@H](C)CC)[C@@H](C)O)C(N)=O [compound 357]
- EC50 (CRF1R): 331 nM
- EC50 (CRF2R): 6.44 nM

Structure (SMILES): CC[C@H](C)[C@H](NC(=O)[C@@H](NC(=O)[C@H](CC(=O)O)NC(=O)[C@H](CC(C)C)NC(=O)[C@H](CC(C)C)NC(=O)[C@H](CC(C)C)NC(=O)[C@H](CCCNC(=N)N)NC(=O)[C@H](CC(N)=O)NC(=O)[C@H](CC(N)=O)NC(=O)[C@H](C)NC(=O)[C@H](C)NC(=O)[C@H](CCC(N)=O)NC(=O)[C@H](CCC(N)=O)NC(=O)[C@H](CCCCN)NC(=O)[C@H](CCC(=O)O)NC(=O)[C@H](CCCCN)NC(=O)[C@H](CCC(=O)O)NC(=O)[C@H](CCC(N)=O)NC(=O)[C@H](CCCCN)NC(=O)[C@H](CCC(=O)O)NC(=O)[C@@H](NC(=O)[C@H](CCC(=O)O)NC(=O)[C@@H](NC(=O)[C@H](CCSC)NC(=O)[C@H](CCCCN)NC(=O)[C@H](CCCNC(=N)N)NC(=O)[C@H](CC(C)C)NC(=O)[C@H](CC(C)C)NC(=O)[C@H](C)NC(=O)[C@@H](NC(=O)[C@@H]1CCCN1C(=O)[C@H](CC(C)C)NC(=O)[C@H](CC(=O)O)NC(=O)[C@@H](NC(=O)[C@H](CO)NC(=O)[C@@H](NC(=O)[C@@H]1CCCN1C(=O)[C@@H]1CCCN1C(=O)CNC(=O)[C@@H]1CCC(=O)N1)[C@@H](C)CC)[C@@H](C)CC)[C@@H](C)O)[C@@H](C)CC)[C@@H](C)CC)[C@@H](C)O)C(N)=O [compound 61]
- EC50 (CRF1R): > 100 nM
- CRF1R (Emax %) (CRF1R): (12) %
- EC50 (CRF2R): > 100 nM
- CRF2R (Emax %) (CRF2R): (89) %

Structure (SMILES): CC[C@H](C)[C@H](NC(=O)[C@H](CCCNC(=N)N)NC(=O)[C@H](C)NC(=O)[C@H](CC(C)C)NC(=O)[C@H](CC(C)C)NC(=O)[C@H](CCCNC(=N)N)NC(=O)[C@H](C)NC(=O)[C@H](CC(N)=O)NC(=O)[C@H](CC(N)=O)NC(=O)[C@H](C)NC(=O)[C@H](C)NC(=O)[C@H](CCC(N)=O)NC(=O)[C@H](CCC(N)=O)NC(=O)[C@H](CCCCN)NC(=O)[C@H](CCC(=O)O)NC(=O)[C@H](CCCCN)NC(=O)[C@H](CCC(=O)O)NC(=O)[C@H](CCC(N)=O)NC(=O)[C@H](CCCCN)NC(=O)[C@H](CCC(=O)O)NC(=O)[C@@H](NC(=O)[C@H](CCC(=O)O)NC(=O)[C@@H](NC(=O)[C@H](CCSC)NC(=O)[C@H](CCCCN)NC(=O)[C@H](CCCNC(=N)N)NC(=O)[C@H](CC(C)C)NC(=O)[C@H](CC(C)C)NC(=O)[C@H](Cc1c[nH]c2ccccc12)NC(=O)[C@@H](NC(=O)[C@@H]1CCCN1C(=O)[C@H](CC(C)C)NC(=O)[C@H](CC(=O)O)NC(=O)[C@@H](NC(=O)[C@H](CO)NC(=O)[C@@H](NC(=O)[C@@H]1CCCN1C(=O)[C@@H]1CCCN1C(=O)CNC(=O)[C@@H]1CCC(=O)N1)[C@@H](C)CC)[C@@H](C)CC)[C@@H](C)O)[C@@H](C)CC)[C@@H](C)CC)C(N)=O [compound 292]
- EC50 (CRF1R): ≥ 1000 nM
- EC50 (CRF2R): ≥ 100 nM

Structure (SMILES): CC[C@H](C)[C@H](NC(=O)[C@@H](NC(=O)[C@H](CC(=O)O)NC(=O)[C@H](CC(C)C)NC(=O)[C@H](CC(C)C)NC(=O)[C@H](CC(C)C)NC(=O)[C@H](CCCNC(=N)N)NC(=O)[C@H](CC(N)=O)NC(=O)[C@H](CC(N)=O)NC(=O)[C@H](C)NC(=O)[C@H](C)NC(=O)[C@H](CCC(N)=O)NC(=O)[C@H](CCC(N)=O)NC(=O)[C@H](CCCCN)NC(=O)[C@H](CCC(=O)O)NC(=O)[C@H](CCCCN)NC(=O)[C@H](CCC(=O)O)NC(=O)[C@H](CCC(N)=O)NC(=O)[C@H](CCCCN)NC(=O)[C@H](CCC(=O)O)NC(=O)[C@@H](NC(=O)[C@H](CCC(=O)O)NC(=O)[C@@H](NC(=O)[C@H](CCSC)NC(=O)[C@H](CCCCN)NC(=O)[C@H](CCCNC(=N)N)NC(=O)[C@H](CC(C)C)NC(=O)[C@H](CC(C)C)NC(=O)[C@H](Cc1c[nH]c2ccccc12)NC(=O)[C@H](Cc1c[nH]c2ccccc12)NC(=O)[C@@H]1CCCN1C(=O)[C@H](CC(C)C)NC(=O)[C@H](CC(=O)O)NC(=O)[C@@H](NC(=O)[C@H](CO)NC(=O)[C@@H](NC(=O)[C@@H]1CCCN1C(=O)[C@@H]1CCCN1C(=O)CNC(=O)[C@@H]1CCC(=O)N1)[C@@H](C)CC)[C@@H](C)CC)[C@@H](C)CC)[C@@H](C)CC)[C@@H](C)O)C(N)=O [compound 216]
- EC50 (CRF1R): 49.8 nM
- EC50 (CRF2R): 9.9 nM
